In patent publication US11702392B2, “Pyrimidinone derivatives as SHP2 antagonists” (MERCK PATENT GMBH, priority 2019, dated 2023):

Test: Pharmacokinetics in female CD1 mice (oral / intravenous)
Format: in vivo
Details: mouse
Procedure: Female CD1 mice (N=3) received a single oral (gavage) or a single intravenous (bolus) injection of compound. […] Consecutive blood samples were taken sub-lingually under isofluorane inhalation from animals after 0.083 (IV), 0.25, 0.5, 1, 2, 4, 6 and 24 h and were further processed to obtain plasma. Samples were protein precipitated and analysed by LC/MS/MS.

In the case of `CC1(N)CCN(c2cnc(-c3cccc(Cl)c3Cl)c(N)n2)CC1` [SHP-099, reference compound], the Fz was 74%.
